From PMC8317135 (Journal of medicinal chemistry, 2021)

Experiments:
hP2Y14R = biological target: T1, hP2Y14R (Homo sapiens, UniProt Q15391)
T1 sequence (Q15391 1-338): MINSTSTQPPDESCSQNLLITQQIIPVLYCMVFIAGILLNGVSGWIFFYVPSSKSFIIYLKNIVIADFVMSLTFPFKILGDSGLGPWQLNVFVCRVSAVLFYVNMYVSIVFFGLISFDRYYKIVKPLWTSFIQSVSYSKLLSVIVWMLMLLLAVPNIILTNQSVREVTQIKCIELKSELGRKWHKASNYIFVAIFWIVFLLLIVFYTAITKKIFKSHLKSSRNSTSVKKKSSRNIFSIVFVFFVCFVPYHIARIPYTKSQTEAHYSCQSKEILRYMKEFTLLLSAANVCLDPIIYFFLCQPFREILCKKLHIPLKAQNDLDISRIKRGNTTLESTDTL

in vivo = conditions: male, Wistar, rat, iv, 0.5 mg/kg

SMILES: O=C(O)c1cc(-c2ccc(-c3cc(CO)on3)cc2)c2ccc(-c3ccc(C(F)(F)F)cc3)cc2c1 [Compound 32, 4-(4-(5-(Hydroxymethyl)isoxazol-3-yl)phenyl)-7-(4-(trifluoromethyl)phenyl)-2-naphthoic Acid]
- fold increase in affinity compared to the triazole series (hP2Y14R): 20 fold
- Tmax at 24 h (in vivo): 4.98 min
